Data: patent US8975235B2, “Lysophosphatidic acid receptor antagonists” (InterMune, Inc., priority 2011, dated 2015)

By UniProt entry, the sequences of proteins in these tests, tags left out.
UniProt Q92633, whole entry: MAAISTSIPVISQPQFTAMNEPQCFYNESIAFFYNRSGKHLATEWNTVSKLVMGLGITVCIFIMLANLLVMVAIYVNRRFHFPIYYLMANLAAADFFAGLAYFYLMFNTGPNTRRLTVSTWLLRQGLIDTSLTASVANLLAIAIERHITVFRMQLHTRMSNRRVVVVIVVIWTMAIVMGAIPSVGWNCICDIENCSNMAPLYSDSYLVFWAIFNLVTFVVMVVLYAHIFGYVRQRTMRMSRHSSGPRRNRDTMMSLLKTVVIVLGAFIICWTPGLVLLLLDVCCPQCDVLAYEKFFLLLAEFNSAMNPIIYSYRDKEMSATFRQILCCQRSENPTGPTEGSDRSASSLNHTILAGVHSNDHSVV
UniProt Q9UBY5, whole entry: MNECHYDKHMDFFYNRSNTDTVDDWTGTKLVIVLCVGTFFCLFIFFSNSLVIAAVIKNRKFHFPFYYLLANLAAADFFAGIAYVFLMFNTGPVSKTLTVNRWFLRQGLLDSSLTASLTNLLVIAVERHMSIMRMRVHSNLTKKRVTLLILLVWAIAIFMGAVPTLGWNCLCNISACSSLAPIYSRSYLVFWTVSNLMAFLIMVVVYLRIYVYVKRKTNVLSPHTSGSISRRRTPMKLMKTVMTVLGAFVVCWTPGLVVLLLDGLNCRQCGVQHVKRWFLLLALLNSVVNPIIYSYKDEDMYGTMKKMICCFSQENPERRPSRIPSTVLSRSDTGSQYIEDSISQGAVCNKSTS

Key:
Human LPA1 [1] = target: T1, Human LPA1 (Homo sapiens, UniProt Q92633); assay: Beta-Arrestin based assay for human LPA1R antagonists (PathHunter); conditions: read-out: Beta Arrestin EC50; CHO cells stably expressing ProLink tagged human LPA1R; agonist LPA 0.5 micromolar
Method: Beta-Arrestin Based Assays for Human LPA1R Antagonists and Agonists
A CHO cell line stably expressing the ProLink™ tagged human LPA1R was obtained from DiscoverX Inc, Fremont, Calif. In this system, β-Arrestin was fused to an N-terminal deletion mutant of β-galactosidase (termed the enzyme acceptor or EA), the human LPA1R was fused to a smaller (42 amino acids) weakly complementing fragment termed ProLink™. […] Cell handling and assays were performed according to protocols specified in the PathHunter® assays kits (DiscoverX, Fremont, Calif.). Assays were performed in quadruplicate in white 384 well plates. End point luminescence data were plotted and fit to a 4 parameter logistic function to obtain IC50 values. For antagonist assays, an […] concentration of agonist (LPA) equal to 0.5 micromolar was used.

Human LPA1 [2] = target: T1, Human LPA1; assay: LPA1 calcium flux assay; conditions: read-out: Ca Flux LPA1 IC50; human LPA1 expressing CHO cells; stimulated with 10 nM LPA
Method: Establishment of a CHO Cell Line Stably Expressing Human LPA1
A 1.1 kb cDNA encoding the human LPA1 receptor is cloned from human lung. Human lung RNA (Clontech Laboratories, Inc. USA) is reverse transcribed using the RETROscript kit (Ambion, Inc.) and the full-length cDNA for human LPA1 is obtained by PCR of the reverse transcription reaction. The nucleotide sequence of the cloned human LPA1 is determined by sequencing and is confirmed to be identical to the published human LPA1 sequence (An et al. Biochem. Biophys. Res. Commun. 231:619 (1997). The cDNA is cloned into the pcDNA5 pcDNA5/FRT expression plasmid and is transfected in CHO cells using lipofectamine 2000 (Invitrogen Corp., USA). Clones stably expressing human LPA1 are selected using hygromycin and identified as cells that show Ca-influx in response to LPA.
(§1) LPA1 and LPA3 Calcium Flux Assays
Human LPA1 or LPA3 expressing CHO cells were seeded at 20,000-45,000 cells per well in a 96-well poly-D-lysine coated plate one or two days before the assay. Prior to the assay, the cells were washed once with PBS and then cultured in serum-free media overnight. On the day of the assay, a calcium indicator dye (Calcium 4, Molecular Devices) in assay buffer (HBSS with Ca^2+ and Mg^2+ and containing 20 mM Hepes and 0.3% fatty-acid free human serum albumin) was added to each well and incubation continued for 1 hour at 37° C. 10 μl of test compounds in 2.5% DMSO were added to the cells and incubation continued at room temperature for 30 minutes. Cells were then stimulated by the addition of 10 nM LPA and intracellular Ca^2+ measured using the Flexstation 3 (Molecular Devices). IC50s were determined using Graphpad prism analysis of drug titration curves.

Human LPA3 = Human LPA3 (Homo sapiens, UniProt Q9UBY5); assay: LPA3 calcium flux assay; conditions: read-out: Ca Flux LPA3 IC50; human LPA3 expressing CHO cells; stimulated with 10 nM LPA
Method: Establishment of a CHO Cell Line Stably Expressing Human LPA3
A vector containing the human LPA3 receptor cDNA is obtained from the Missouri S&T cDNA Resource Center (www.cdna.org). The full-length cDNA fragment for human LPA3 is obtained by PCR from the vector. The nucleotide sequence of the cloned human LPA3 is determined by sequencing and is confirmed to be identical to the published human LPA3 sequence (NCBI accession number NM_012152). The cDNA is cloned into the pcDNA5 pcDNA5/FRT expression plasmid and is transfected in CHO cells using lipofectamine 2000 (Invitrogen Corp., USA). Clones stably expressing human LPA3 are selected using hygromycin and identified as cells that show Ca-influx in response to LPA.
as §1
Human LPA1 or LPA3 expressing CHO cells were seeded at 20,000-45,000 cells per well in a 96-well poly-D-lysine coated plate one or two days before the assay. Prior to the assay, the cells were washed once with PBS and then cultured in serum-free media overnight. […] Cells were then stimulated by the addition of 10 nM LPA and intracellular Ca^2+ measured using the Flexstation 3 (Molecular Devices). IC50s were determined using Graphpad prism analysis of drug titration curves.

| Structure (SMILES) | EC50 (Human LPA1 [1]) [nM] | IC50 (Human LPA1 [2]) [nM] | IC50 (Human LPA3) [nM] |
| --- | --- | --- | --- |
| Cc1noc(-c2ccc(-c3ccc(C4(C(=O)OC5OC(C(=O)O)C(O)C(O)C5O)CC4)cc3)cc2)c1NC(=O)O[C@H](C)c1ccccc1 (stereo partly drawn) | 50 to 500 | – | – |
| Cc1onc(-c2ccc(-c3ccc(CC(=O)O)cc3)cc2)c1NC(=O)O[C@H](C)c1ccccc1Cl | < 50 | – | – |
| Cc1nsc(-c2ccc(-c3ccc(C(C)(C)C(=O)O)cc3)cc2)c1NC(=O)O[C@H](C)c1ccccc1 | 50 to 500 | – | – |
| C[C@@H](OC(=O)Nc1c(-c2ccc(-c3ccc(C4(C(=O)O)CC4)cc3)cc2)nc2ccccn12)c1ccccc1 | < 50 | – | – |
| O=C(O)Cc1ccc(C2CCN(C(=O)CNC(=O)OCc3ccccc3)CC2)cc1 | > 500 | – | – |
| C[C@@H](OC(=O)Nc1c(-c2ccc(-c3ccc(C4(C(=O)O)CC4)cc3)cc2)cnn1C1CC1)c1ccccc1 | < 50 | – | – |
| C[C@@H](OC(=O)Nc1ocnc1-c1ccc(-c2ccc(C3(C(=O)O)CC3)cc2)cc1)c1ccccc1 | < 50 | < 50 | – |
| C[C@@H](OC(=O)Nc1c(-c2ccc(-c3ccc(C4(C(=O)O)CC4)cc3)cc2)nnn1C)c1ccccc1 | < 50 | – | – |
| O=C(O)Cc1ccc(C2CCN(C(=O)CCCNC(=O)OCc3ccccc3)CC2)cc1 | > 500 | – | – |
| C[C@@H](OC(=O)Nc1c(-c2ccc(-c3ccc(C4(C(=O)O)CC4)cc3)cc2)sc2nc(C(F)(F)F)ccc12)c1ccccc1 | > 500 | – | – |

The next lines start with the values.

| EC50 (Human LPA1 [1]) [nM] | IC50 (Human LPA1 [2]) [nM] | IC50 (Human LPA3) [nM] | Structure (SMILES) |
| --- | --- | --- | --- |
| > 500 | > 500 | – | C[C@@H](OC(=O)Nc1cccnc1Oc1ccc(-c2ccc(CC(=O)O)cc2)cc1)c1ccccc1Cl |
| < 50 | < 50 | – | C[C@@H](OC(=O)Nc1cnnn1-c1ccc(-c2ccc(C3(C(=O)O)CC3)cc2)cc1)c1ccccc1Cl |
| < 50 | 50 to 500 | – | Cc1noc(-c2ccc(-c3ccc(C4(C(=O)O)CC4)cc3)cc2)c1NC(=O)O[C@H](C)c1ccccc1Cl |
| < 50 | – | – | Cc1snc(-c2ccc(-c3ccc(CC(=O)O)cc3)cc2)c1NC(=O)O[C@H](C)c1ccccc1Cl |
| 50 to 500 | – | – | CCOC(=O)Cc1ccc(-c2ccc(-c3onc(C)c3NC(=O)O[C@H](C)c3ccccc3Cl)cc2)c2ccccc12 |
| > 500 | – | – | Cc1[nH]nc(-c2ccc(-c3ccc(CC(=O)O)cc3)cc2)c1NC(=O)O[C@H](C)c1ccccc1Cl |
| > 500 | > 500 | – | C[C@@H](OC(=O)Nc1c(-c2ccc(-c3ccc(C4(C(=O)O)CC4)cc3)cc2)[nH]c2ccccc12)c1ccccc1Cl |
| < 50 | 50 to 500 | > 500 | Cc1nsc(-c2ccc(-c3ccc(C4(C(=O)O)CC4)cc3)cc2)c1NC(=O)O[C@H](C)c1ccccc1Cl |
| < 50 | < 50 | 50 to 500 | Cc1noc(-c2ccc(-c3ccc(CC(=O)O)c4c3CCC4)cc2)c1NC(=O)O[C@H](C)c1ccccc1Cl |
| 50 to 500 | > 500 | – | C[C@@H](OC(=O)Nc1c(-c2ccccc2)noc1-c1ccc(-c2ccc(C3(C(=O)O)CC3)cc2)cc1)c1ccccc1Cl |
